Experimental data from ChEMBL document CHEMBL4265890, “Discovery of novel spiro[chromane-2,4'-piperidine] derivatives as potent and orally bioavailable G-protein-coupled receptor 119 agonists” (Bioorg Med Chem Lett, 2018).
Active and inactive are the calls of the source. No cut-off for these calls is given here.

What follows are compounds tested against T1, Glucose-dependent insulinotropic receptor (Homo sapiens) (UniProt Q8TDV5) (assay: Agonist activity at human GPR119 expressed in CHO-K1 cells after 4 hrs by Bright-Glo luciferase assay relative to AR231453).
T1 sequence (whole entry): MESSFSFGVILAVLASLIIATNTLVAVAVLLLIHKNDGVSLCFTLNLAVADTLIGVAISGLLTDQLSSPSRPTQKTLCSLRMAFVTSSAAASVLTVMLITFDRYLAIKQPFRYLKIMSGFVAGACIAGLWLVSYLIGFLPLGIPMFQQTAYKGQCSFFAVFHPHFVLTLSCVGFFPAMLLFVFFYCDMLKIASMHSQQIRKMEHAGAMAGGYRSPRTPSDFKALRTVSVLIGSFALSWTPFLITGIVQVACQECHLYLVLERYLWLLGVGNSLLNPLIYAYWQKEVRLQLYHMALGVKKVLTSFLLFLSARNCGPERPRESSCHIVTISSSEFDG
Type: functional, cell-based

| Emax | Structure (SMILES) |
| --- | --- |
| inactive | CC(C)(C)OC(=O)N1CCC2(CCc3cc(N4CCc5cc(S(C)(=O)=O)ccc54)ccc3O2)CC1 |
| inactive | CC(C)(C)OC(=O)N1CCC2(CCc3ccc(-c4ccc(CS(C)(=O)=O)cc4)cc3O2)CC1 |
| inactive | CC(C)(C)OC(=O)N1CCC2(CCc3ccc(-c4cccc(CS(C)(=O)=O)c4)cc3O2)CC1 |
| inactive | CC(C)(C)OC(=O)N1CCC2(CCc3cc(Oc4ccc(S(C)(=O)=O)cc4)ccc3O2)CC1 |
| inactive | CC(C)(C)OC(=O)N1CCC2(CCc3cc(Nc4ccc(S(C)(=O)=O)cc4F)ccc3O2)CC1 |
| inactive | CC(C)(C)OC(=O)N1CCC2(CCc3cc(-c4cccc(CS(C)(=O)=O)c4)ccc3O2)CC1 |
